{"source": "patent US20090143761A1", "about": "“AGENT DELIVERY SYSTEM AND USES OF SAME” (T[…] COMPANY, LLC, priority 2005, published 2009)", "experiment": "Saliva and interstitial fluid melatonin after melatonin ingestion, melatonin EIA, clinical trial samples", "assay_type": "in vivo, human", "details": "four out of the five volunteers", "protocol": "Melatonin EIA: Fluid samples were assayed using a commercially available direct saliva melatonin EIA (American Laboratory Products, Cat. No. 001-EK-DSM). This is a competitive binding assay. The samples, controls, and standards are incubated with melatonin biotin conjugate for three hours and a binding competition for a melatonin antibody, which is bound to the microtiter plate, occurs between the melatonin conjugate and the melatonin in the samples. The more melatonin that is present in the sample, the less biotin conjugate is bound. After three hours the plate was washed and enzyme label was added for one hour during which time binding between the conjugate and enzyme occurs. After one hour, the plate was washed and TMB substrate was added. […] Stop solution is added after a thirty minute incubation, and the plate was read using a BioTek EL800 microplate reader.\nRESULTS: The concentrations of melatonin in the samples and controls were computed using the 4-parameter logistic model available in the BioTek KC Junior software. […] This gave melatonin values that were due solely to melatonin ingestion and removed any background readings due to cross reactivity to other interstitial fluid or saliva components as well as any background measurements due to the matrix of the iontophoresis electrode buffer itself.", "data": [{"smiles": "COc1ccc2[nH]cc(CCNC(C)=O)c2c1", "values": [{"measurement": "increase in interstitial fluid melatonin after ingestion, mean", "result": "9.0 ± 6.2", "unit": "pg/mL"}]}]}
